One assay addresses human factor XIa (Homo sapiens (Human), UniProt P03951). In words: Measurement of FXIa inhibition (fluorogenic peptide substrate Boc-Glu(OBzl)-Ala-Arg-AMC). The class given is biochemical. To be noted: factor XIa from Kordia 0.45 nM, 15 min preincubation, 30 min at 22° C., fluorescence. As for the experimental part:
a.1) Measurement of FXIa Inhibition
The factor XIa inhibition of the substances according to the invention is determined using a biochemical test system which utilizes the reaction of a peptidic factor XIa substrate to determine the enzymatic activity of human factor XIa. Here, factor XIa cleaves from the peptic factor XIa substrate the C-terminal aminomethylcoumarin (AMC), the fluorescence of which is measured. The determinations are carried out in microtitre plates.
In each case 1 μl of the diluted substance solutions is placed into the wells of white microtitre plates from Greiner (384 wells). 20 μl of assay buffer (50 mM of Tris/HCl pH 7.4; 100 mM of sodium chloride; 5 mM of calcium chloride; 0.1% of bovine serum albumin) and 20 μl of factor XIa from Kordia (0.45 nM in assay buffer) are then added successively. After 15 min of incubation, the enzyme reaction is started by addition of 20 μl of the factor XIa substrate Boc-Glu(OBzl)-Ala-Arg-AMC dissolved in assay buffer (10 μM in assay buffer) from Bachem, the mixture is incubated at room temperature (22° C.) for 30 min and fluorescence is then measured (excitation: 360 nm, emission: 460 nm). The measured emissions of the test batches with test substance are compared to those of control batches without test substance (only dimethyl sulphoxide instead of test substance in dimethyl sulphoxide), and IC50 values are calculated from the concentration/activity relationships.

Amino acid sequences for entries named in this document (tags omitted). Residues count along the entry.
UniProt P03951, 19-387 partner: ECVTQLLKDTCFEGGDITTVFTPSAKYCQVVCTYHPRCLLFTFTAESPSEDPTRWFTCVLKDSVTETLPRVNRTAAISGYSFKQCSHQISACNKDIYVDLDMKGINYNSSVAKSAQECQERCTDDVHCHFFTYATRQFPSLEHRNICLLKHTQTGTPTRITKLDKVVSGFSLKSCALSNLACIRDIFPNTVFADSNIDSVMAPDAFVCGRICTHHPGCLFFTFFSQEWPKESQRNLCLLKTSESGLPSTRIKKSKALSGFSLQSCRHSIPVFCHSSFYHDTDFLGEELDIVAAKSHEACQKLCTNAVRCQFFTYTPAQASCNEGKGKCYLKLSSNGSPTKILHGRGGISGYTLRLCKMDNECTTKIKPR
UniProt P03951, 388-625: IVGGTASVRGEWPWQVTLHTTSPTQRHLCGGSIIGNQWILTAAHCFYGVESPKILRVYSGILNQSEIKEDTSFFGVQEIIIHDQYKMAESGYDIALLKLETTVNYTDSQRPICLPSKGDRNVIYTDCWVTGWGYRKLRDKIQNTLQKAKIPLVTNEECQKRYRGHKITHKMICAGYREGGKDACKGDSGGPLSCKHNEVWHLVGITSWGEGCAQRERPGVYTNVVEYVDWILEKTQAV
UniProt P03952, 20-390 partner: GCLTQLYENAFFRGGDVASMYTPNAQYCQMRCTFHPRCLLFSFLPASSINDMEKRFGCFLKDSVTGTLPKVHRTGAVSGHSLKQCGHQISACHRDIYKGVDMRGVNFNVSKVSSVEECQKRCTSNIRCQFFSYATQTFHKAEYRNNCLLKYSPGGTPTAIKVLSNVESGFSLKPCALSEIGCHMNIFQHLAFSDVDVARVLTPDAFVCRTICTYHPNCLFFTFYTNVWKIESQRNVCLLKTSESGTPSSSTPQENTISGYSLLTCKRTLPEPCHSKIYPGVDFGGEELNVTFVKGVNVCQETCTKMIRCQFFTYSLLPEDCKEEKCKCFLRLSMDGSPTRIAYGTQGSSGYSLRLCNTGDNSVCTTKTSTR
UniProt P03952, 391-638: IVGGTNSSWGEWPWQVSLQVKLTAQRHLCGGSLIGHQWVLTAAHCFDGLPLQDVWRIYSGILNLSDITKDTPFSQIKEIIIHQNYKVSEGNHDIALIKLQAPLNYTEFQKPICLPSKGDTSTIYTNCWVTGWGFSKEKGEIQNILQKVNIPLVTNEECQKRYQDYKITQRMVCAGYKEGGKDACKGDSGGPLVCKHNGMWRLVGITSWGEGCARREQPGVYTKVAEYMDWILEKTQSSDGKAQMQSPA

Another assay addresses human plasma kallikrein (Homo sapiens (Human), UniProt P03952). In words: Determination of the plasma kallikrein activity (fluorogenic substrate H-Pro-Phe-Arg-AMC). The class given is biochemical. To be noted: plasma kallikrein from Kordia 0.6 nM, 15 min preincubation, 30 min at 22° C., fluorescence. As to the method: a.5) Determination of the Plasma Kallikrein Activity
To determine the plasma kallikrein inhibition of the substances according to the invention, a biochemical test system is used which utilizes the reaction of a peptidic plasma kallikrein substrate to determine the enzymatic activity of human plasma kallikrein. Here, plasma kallikrein cleaves from the peptic plasma kallikrein substrate the C-terminal aminomethylcoumarin (AMC), the fluorescence of which is measured. The determinations are carried out in microtitre plates.
Test substances are dissolved in dimethyl sulphoxide and serially diluted in dimethyl sulphoxide (3000 μM to 0.0078 μM; resulting final concentrations in the test: 50 μM to 0.00013 μM). In each case 1 μl of the diluted substance solutions is placed into the wells of white microtitre plates from Greiner (384 wells). 20 μl of assay buffer (50 mM Tris/HCl pH 7.4; 100 mM sodium chloride solution; 5 mM of calcium chloride solution; 0.1% of bovine serum albumin) and 20 μl of plasma kallikrein from Kordia (0.6 nM in assay buffer) are then added successively. After 15 min of incubation, the enzyme reaction is started by addition of 20 μl of the substrate H-Pro-Phe-Arg-AMC dissolved in assay buffer (10 μM in assay buffer) from Bachem, the mixture is incubated at room temperature (22° C.) for 30 min and fluorescence is then measured (excitation: 360 nm, emission: 460 nm). The measured emissions of the test batches with test substance are compared to those of control batches without test substance (only dimethyl sulphoxide instead of test substance in dimethyl sulphoxide), and IC50 values are calculated from the concentration/activity relationships.

Experimental findings from US9765070B2, “Substituted oxopyridine derivatives” (Bayer Pharma Aktiengesellschaft, priority 2013, dated 2017) are described below.

A word on the IC50: it is the concentration that gives 50% inhibition. A higher IC50 goes with weaker potency in that assay.

SMILES strings stand for the structures.

For the compound `COc1cn(C(C[C@@H]2CCCCO2)C(=O)Nc2ccc3nc(C(=O)O)cn3c2)c(=O)cc1-c1cc(Cl)ccc1C#N` (mixture of isomers) [Example 9, 6-({2-[4-(5-Chloro-2-cyanophenyl)-5-methoxy-2-oxopyridin-1(2H)-yl]-3-[(2S)-tetrahydro-2H-pyran-2-yl]propanoyl}amino)imidazo[1,2-a]pyridine-2-carboxylic acid (mixture of enantiomerically pure diastereomers)], the IC50 on human factor XIa worked out at 0.5 nM. On human plasma kallikrein, `CCC(C(=O)Nc1cn2cc(C(=O)O)ccc2n1)n1cc(OC)c(-c2cc(Cl)ccc2C#N)cc1=O` (racemic) [Example 1, 2-({2-[4-(5-Chloro-2-cyanophenyl)-5-methoxy-2-oxopyridin-1(2H)-yl]butanoyl}amino)imidazo[1,2-a]pyridine-6-carboxylic acid (racemate)] gave an IC50 of 140 nM. `CCC(C(=O)Nc1ccc2nccn2c1)n1cc(OC)c(-c2cc(Cl)ccc2C#N)cc1=O` (racemic) [Example 4, 2-[4-(5-Chloro-2-cyanophenyl)-5-methoxy-2-oxopyridin-1(2H)-yl]-N-(imidazo[1,2-a]pyridin-6-yl)butanamide (racemate)]: half-maximal inhibition at human factor XIa (IC50) was put at 65 nM. On to `COc1cn(C(CC2CCC2)C(=O)Nc2ccc3nc(C(=O)O)cn3c2)c(=O)cc1-c1cc(Cl)ccc1C#N` (racemic) [Example 5, 6-({2-[4-(5-Chloro-2-cyanophenyl)-5-methoxy-2-oxopyridin-1(2H)-yl]-3-cyclobutylpropanoyl}-amino)imidazo[1,2-a]pyridine-2-carboxylic acid (racemate)], for which the 50% inhibitory concentration (IC50) on human factor XIa is 1 nM; against human plasma kallikrein it was 7.1 nM.

`CCC(C(=O)Nc1ccc2nc(C(=O)O)cn2c1)n1cc(OC)c(-c2cc(Cl)ccc2OC(F)F)cc1=O` (racemic) [Example 7, 6-[(2-{4-[5-Chloro-2-(difluoromethoxy)phenyl]-5-methoxy-2-oxopyridin-1(2H)-yl}butanoyl)amino]-imidazo[1,2-a]pyridine-2-carboxylic acid (racemate)]: the IC50 against human plasma kallikrein came to 150 nM. Take `CCOC(=O)c1cnc2ccc(NC(=O)C(CCOC)n3cc(OC)c(-c4cc(Cl)ccc4C#N)cc3=O)cn12` (racemic) [Example 10, Ethyl 6-({2-[4-(5-chloro-2-cyanophenyl)-5-methoxy-2-oxopyridin-1(2H)-yl]-4-methoxybutanoyl}amino)imidazo[1,2-a]pyridine-3-carboxylate (racemate)]: on human factor XIa, the IC50 is 36 nM. On to `COc1cn(C(C[C@H]2CC[C@H](O)CC2)C(=O)Nc2ccc3nccn3c2)c(=O)cc1-c1cc(Cl)ccc1C#N` (mixture of isomers) [Example 16, 2-[4-(5-Chloro-2-cyanophenyl)-5-methoxy-2-oxopyridin-1(2H)-yl]-3-(trans-4-hydroxycyclohexyl)-N-(imidazo[1,2-a]pyridin-6-yl)propanamide (racemate)], for which the IC50 against human plasma kallikrein worked out at 17 nM. Same read-out and setting: next, `COCCC(C(=O)Nc1ccc2nncn2c1)n1cc(OC)c(-c2cc(Cl)ccc2C#N)cc1=O` (racemic) [Example 21, 2-[4-(5-Chloro-2-cyanophenyl)-5-methoxy-2-oxopyridin-1(2H)-yl]-4-methoxy-N-([1,2,4]triazolo[4,3-a]pyridin-6-yl)butanamide (racemate)]: 8 nM; `COCCC(C(=O)Nc1ccc2nnc(CN3CCOCC3)n2c1)n1cc(OC)c(-c2cc(Cl)ccc2C#N)cc1=O` (racemic) [Example 26, 2-[4-(5-Chloro-2-cyanophenyl)-5-methoxy-2-oxopyridin-1(2H)-yl]-4-methoxy-N-[3-(morpholin-4-ylmethyl)[1,2,4]triazolo[4,3-a]pyridin-6-yl]butanamide (racemate)]: 12 nM. As to `COc1cn(C(Cc2ccccn2)C(=O)Nc2ccc3nccn3c2)c(=O)cc1-c1cc(Cl)ccc1C#N` (racemic) [Example 28, 2-[4-(5-Chloro-2-cyanophenyl)-5-methoxy-2-oxopyridin-1(2H)-yl]-N-(imidazo[1,2-a]pyridin-6-yl)-3-(pyridin-2-yl)propanamide (racemate)], on human factor XIa, it took 12 nM to reach half-maximal inhibition (IC50). Regarding `COc1cn(C(Cc2cocn2)C(=O)Nc2ccc3nccn3c2)c(=O)cc1-c1cc(Cl)ccc1C#N` (racemic) [Example 32, 2-[4-(5-Chloro-2-cyanophenyl)-5-methoxy-2-oxopyridin-1(2H)-yl]-N-(imidazo[1,2-a]pyridin-6-yl)-3-(1,3-oxazol-4-yl)propanamide (racemate)], half-maximal inhibition on human plasma kallikrein (IC50) was put at 36 nM. `CCC(C(=O)Nc1ccn2nccc2c1)n1cc(OC)c(-c2cc(Cl)ccc2C#N)cc1=O` (racemic) [Example 34, 2-[4-(5-Chloro-2-cyanophenyl)-5-methoxy-2-oxopyridin-1(2H)-yl]-N-(pyrazolo[1,5-a]pyridin-5-yl)butanamide (racemate)]: the IC50 on human factor XIa was found to be 21 nM. Consider `COCCC(C(=O)Nc1ccn2nccc2c1)n1cc(Cl)c(-c2cc(Cl)ccc2C#N)cc1=O` (racemic) [Example 37, 2-[5-Chloro-4-(5-chloro-2-cyanophenyl)-2-oxopyridin-1(2H)-yl]-4-methoxy-N-(pyrazolo[1,5-a]pyridin-5-yl)butanamide (racemate)], for which the IC50 on human factor XIa was 29 nM; on human plasma kallikrein, 65 nM. On the same counts, the results for `CCC(C(=O)Nc1ccn2nccc2c1)n1cc(C(=O)O)c(-c2cc(Cl)ccc2C#N)cc1=O` (racemic) [Example 39, 4-(5-Chloro-2-cyanophenyl)-6-oxo-1-[1-oxo-1-(pyrazol[1,5-a]pyridin-5-ylamino)butan-2-yl]-1,6-dihydropyridine-3-carboxylic acid (racemate)] are 180 nM and 1800 nM.

As for `COCCC(C(=O)Nc1ccn2nccc2c1)n1cc(Cl)c(-c2cc(Cl)ccc2C#N)cc1=O` (single isomer, unassigned; enantiomer 1) [Example 38, 2-[5-Chloro-4-(5-chloro-2-cyanophenyl)-2-oxopyridin-1(2H)-yl]-4-methoxy-N-(pyrazolo[1,5-a]pyridin-5-yl)butanamide (enantiomer 1)], the IC50 on human factor XIa was found to be 15 nM; against human plasma kallikrein it was 29 nM.
